Assay [1] concerns the target Neuromedin-K receptor (Homo sapiens, UniProt P29371). The experiment in a line: Antagonist activity at wild type human NK3 receptor expressed in HEK293 cells assessed as inhibition of [MePhe7]NKB-induced accumulation of [3H]inositol phosphate. The conditions noted are these: read-out: pA2 (converted). Type of assay: functional, cell-based. The method in brief:
(§1)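 HEK293 cells transiently transfected with NK3 receptor, labeled with myo-[³H]-inositol and assayed 48 h post-transfection in HBSS/HEPES pH 7.4 with 8 mM LiCl. Fixed antagonist concentrations were preincubated 20 min at 37 °C, then [MePhe⁷]NKB (0.1 nM–10 μM) was added for 45 min at 37 °C. [³H]IP was captured on yttrium silicate beads. Agonist EC50 shifts gave dose ratios for Schild regression. Six curves from three transfections.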

Sequences of proteins named here, by UniProt entry; tags and fusion partners are left off.
UniProt P29371, whole entry: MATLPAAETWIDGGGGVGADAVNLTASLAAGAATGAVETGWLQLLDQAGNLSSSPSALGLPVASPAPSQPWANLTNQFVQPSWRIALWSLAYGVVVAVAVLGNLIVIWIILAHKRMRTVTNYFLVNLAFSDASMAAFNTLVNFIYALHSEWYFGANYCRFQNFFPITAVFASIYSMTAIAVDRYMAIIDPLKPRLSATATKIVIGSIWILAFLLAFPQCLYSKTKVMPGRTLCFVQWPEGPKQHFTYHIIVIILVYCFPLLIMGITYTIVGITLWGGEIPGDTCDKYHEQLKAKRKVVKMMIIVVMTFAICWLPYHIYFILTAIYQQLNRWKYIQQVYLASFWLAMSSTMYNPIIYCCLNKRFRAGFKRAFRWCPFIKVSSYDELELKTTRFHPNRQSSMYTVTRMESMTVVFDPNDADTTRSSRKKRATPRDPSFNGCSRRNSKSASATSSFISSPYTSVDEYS
UniProt P30098, whole entry: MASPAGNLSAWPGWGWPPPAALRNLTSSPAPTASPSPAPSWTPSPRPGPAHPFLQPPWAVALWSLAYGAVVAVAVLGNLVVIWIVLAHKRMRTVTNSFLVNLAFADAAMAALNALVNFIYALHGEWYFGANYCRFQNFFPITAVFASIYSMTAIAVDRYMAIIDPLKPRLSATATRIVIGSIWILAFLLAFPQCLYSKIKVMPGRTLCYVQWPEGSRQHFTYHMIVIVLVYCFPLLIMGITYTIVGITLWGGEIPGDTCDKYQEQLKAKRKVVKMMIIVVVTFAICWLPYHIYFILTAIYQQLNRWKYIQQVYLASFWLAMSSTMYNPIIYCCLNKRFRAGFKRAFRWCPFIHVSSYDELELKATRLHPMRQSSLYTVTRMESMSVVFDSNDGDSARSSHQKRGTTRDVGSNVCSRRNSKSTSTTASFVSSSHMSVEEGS

The target of assay [2] is T1, Neuromedin-K receptor (Cavia porcellus, UniProt P30098). The assay can be described thus: Antagonist activity at wild type guinea pig NK3 receptor expressed in HEK293 cells assessed as inhibition of [MePhe7]NKB-induced accumulation of [3H]inositol phosphate. The assay is classed as functional, cell-based. The conditions noted are these: read-out: pA2 (converted). The method in brief: as §1

In assay [3] the target is T1, Neuromedin-K receptor. The assay can be described thus: Antagonist activity at […] guinea pig NK3 receptor A1142.58T mutant expressed in HEK293 cells assessed as inhibition of [MePhe7]NKB-induced accumulation of [3H]inositol phosphate. The assay is classed as functional, cell-based. In a few lines:
as §1

For assay [4], the target named is T1, Neuromedin-K receptor. The experiment in a line: Displacement of [3H]osanetant from guinea pig recombinant NK3 receptor expressed in HEK293 cells. The assay is classed as cell-based. The method in brief:
(§2)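 Membranes from transiently transfected HEK293 cells (5 μg protein/well) in 50 mM Tris-HCl, 4 mM MnCl2, 1 μM phosphoramidon, 0.1% BSA, pH 7.4. Incubated with [³H]SR 142801 at its Kd and 10 inhibitor concentrations (0.0003–10 μM) for 75 min at RT. Nonspecific binding defined with 10 μM competitor. Filtered on GF/C. Ki by Cheng-Prusoff; three experiments in duplicate.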
In general terms: Displacement assays read how much labelled ligand stays bound in the presence of the test substance.

In assay [5] the target is T1, Neuromedin-K receptor. The experiment in a line: Displacement of [3H]osanetant from guinea pig recombinant NK3 receptor A1142.58T expressed in HEK293 cells. Type of assay: cell-based. The method in brief: as §2

By pA2 is commonly meant the negative logarithm of the molar antagonist concentration that doubles the agonist concentration needed for the same response. By Ki is commonly meant the dissociation constant of the complex between target and ligand, obtained from inhibition or displacement.

As to `CC[C@H](NC(=O)c1c(O)c(-c2ccccc2)nc2ccccc12)c1ccccc1` [TALNETANT], the Kb at Neuromedin-K receptor [1] was 5.75 nM; on Neuromedin-K receptor [2] it was 15.5 nM. Besides, the pA2 on Neuromedin-K receptor [3] turned out to be 7.91. Moreover, the Ki on Neuromedin-K receptor [4] was 5 nM; on Neuromedin-K receptor [5] it was 3.8 nM.

The values above are taken from ChEMBL document CHEMBL1154606, “Identification of a critical residue in the transmembrane domain 2 of tachykinin neurokinin 3 receptor affecting the dissociation kinetics and antagonism mode of osanetant (SR 142801) and piperidine-based structures” (J Med Chem, 2009).
